Test results reported in US20100209345A1, “Fluorinated Ligands for Targeting Peripheral Benzodiazepine Receptors” (Australian Nuclear Science & Technology Organisation, priority 2006, published 2010).

Tests used:
[1] = Biodistribution of 18F-labelled tracers in rats; format: in vivo; settings: corrected for decay of 18F
[2] = molecular target: central benzodiazepine receptors; experiment: In vitro binding, [3H]-Flumazenil, brain cortex membrane preparation; settings: read-out: CBR IC50, [3H]-Flumazenil (2 nM), 25° C., 45 min

## CN(C(=O)Cc1c(-c2ccc(OCCC[18F])cc2)nc2c(Cl)cc(Cl)cn12)c1ccccc1 [PBR147*, 2-(2-(4-(3-fluoropropoxy)phenyl)-6,8-dichloroimidazo[1,2-a]pyridin-3-yl)-N-methyl-N-phenylacetamide]
[1]; 15 min
  Biodistribution: Adrenals: 7.59 ± 1.30 % ID/g
  Biodistribution: Bladder: 0.61 ± 0.15 % ID/g
  Biodistribution: Blood: 0.63 ± 0.08 % ID/g
  Biodistribution: Bone: 0.94 ± 0.05 % ID/g
  Biodistribution: Brain: 0.43 ± 0.05 % ID/g
  Biodistribution: GIT: 0.98 ± 0.15 % ID/g
  Biodistribution: Heart: 6.53 ± 0.38 % ID/g
  Biodistribution: Kidney: 4.75 ± 0.75 % ID/g
  Biodistribution: Liver: 1.88 ± 0.16 % ID/g
  Biodistribution: Lungs: 26.34 ± 3.04 % ID/g
  Biodistribution: Muscle: 0.78 ± 0.09 % ID/g
  Biodistribution: Olfactory bulbs: 0.58 ± 0.09 % ID/g
  Biodistribution: Pancreas: 2.12 ± 0.16 % ID/g
  Biodistribution: Skin: 0.45 ± 0.03 % ID/g
  Biodistribution: Spleen: 8.07 ± 1.11 % ID/g
  Biodistribution: Stomach: 0.41 ± 0.12 % ID/g
  Biodistribution: Testes: 0.23 ± 0.02 % ID/g
  Biodistribution: Thymus: 0.76 ± 0.12 % ID/g
  Biodistribution: Thyroid: 7.23 ± 1.35 % ID/g
[1]; 30 min
  Biodistribution: Adrenals: 8.47 ± 1.46 % ID/g
  Biodistribution: Bladder: 0.58 ± 0.05 % ID/g
  Biodistribution: Blood: 0.34 ± 0.06 % ID/g
  Biodistribution: Bone: 1.18 ± 0.08 % ID/g
  Biodistribution: Brain: 0.26 ± 0.04 % ID/g
  Biodistribution: GIT: 1.14 ± 0.04 % ID/g
  Biodistribution: Heart: 5.69 ± 0.42 % ID/g
  Biodistribution: Kidney: 3.82 ± 0.45 % ID/g
  Biodistribution: Liver: 1.37 ± 0.38 % ID/g
  Biodistribution: Lungs: 18.00 ± 2.29 % ID/g
  Biodistribution: Muscle: 0.64 ± 0.19 % ID/g
  Biodistribution: Olfactory bulbs: 0.48 ± 0.09 % ID/g
  Biodistribution: Pancreas: 1.88 ± 0.24 % ID/g
  Biodistribution: Skin: 0.51 ± 0.06 % ID/g
  Biodistribution: Spleen: 7.25 ± 1.13 % ID/g
  Biodistribution: Stomach: 0.40 ± 0.06 % ID/g
  Biodistribution: Testes: 0.21 ± 0.02 % ID/g
  Biodistribution: Thymus: 0.63 ± 0.11 % ID/g
  Biodistribution: Thyroid: 7.43 ± 1.00 % ID/g
[1]; 60 min
  Biodistribution: Adrenals: 8.45 ± 0.84 % ID/g
  Biodistribution: Bladder: 0.58 ± 0.12 % ID/g
  Biodistribution: Blood: 0.23 ± 0.03 % ID/g
  Biodistribution: Bone: 1.49 ± 0.16 % ID/g
  Biodistribution: Brain: 0.16 ± 0.01 % ID/g
  Biodistribution: GIT: 1.44 ± 0.29 % ID/g
  Biodistribution: Heart: 5.82 ± 0.24 % ID/g
  Biodistribution: Kidney: 3.68 ± 0.28 % ID/g
  Biodistribution: Liver: 1.08 ± 0.14 % ID/g
  Biodistribution: Lungs: 11.36 ± 0.97 % ID/g
  Biodistribution: Muscle: 0.55 ± 0.11 % ID/g
  Biodistribution: Olfactory bulbs: 0.27 ± 0.03 % ID/g
  Biodistribution: Pancreas: 1.66 ± 0.13 % ID/g
  Biodistribution: Skin: 0.49 ± 0.06 % ID/g
  Biodistribution: Spleen: 6.98 ± 0.29 % ID/g
  Biodistribution: Stomach: 0.64 ± 0.27 % ID/g
  Biodistribution: Testes: 0.22 ± 0.01 % ID/g
  Biodistribution: Thymus: 0.69 ± 0.08 % ID/g
  Biodistribution: Thyroid: 8.17 ± 1.71 % ID/g
[1]; 4 hours
  Biodistribution: Adrenals: 9.30 ± 0.55 % ID/g
  Biodistribution: Bladder: 0.80 ± 0.05 % ID/g
  Biodistribution: Blood: 0.13 ± 0.01 % ID/g
  Biodistribution: Bone: 2.56 ± 0.03 % ID/g
  Biodistribution: Brain: 0.09 ± 0.01 % ID/g
  Biodistribution: GIT: 2.71 ± 0.10 % ID/g
  Biodistribution: Heart: 6.09 ± 0.54 % ID/g
  Biodistribution: Kidney: 3.26 ± 0.16 % ID/g
  Biodistribution: Liver: 0.57 ± 0.02 % ID/g
  Biodistribution: Lungs: 5.62 ± 0.24 % ID/g
  Biodistribution: Muscle: 0.44 ± 0.04 % ID/g
  Biodistribution: Olfactory bulbs: 0.24 ± 0.09 % ID/g
  Biodistribution: Pancreas: 0.95 ± 0.14 % ID/g
  Biodistribution: Skin: 0.57 ± 0.04 % ID/g
  Biodistribution: Spleen: 4.79 ± 0.31 % ID/g
  Biodistribution: Stomach: 0.83 ± 0.17 % ID/g
  Biodistribution: Testes: 0.28 ± 0.02 % ID/g
  Biodistribution: Thymus: 0.81 ± 0.08 % ID/g
  Biodistribution: Thyroid: 6.44 ± 0.45 % ID/g
[2]
  IC50: > 4 µM
